The list shows a part of the results, in another mix than the full data. Inconclusive results are not listed. Calls of active or inactive are those of the source.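 Rule for the calls: active = more than half of the replicate wells show a fall in the fluorescence ratio signal beyond about 16% (limit read from the data, passing the limit was not always enough); inconclusive = exactly half of the replicate wells pass the set limit; inactive = fewer than half of replicates pass the limit.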

In this experiment the test system is Ran GTPase (GTP-bound) - importin-beta complex. Put plainly: inhibitors of RanGTP-importin-beta interaction, primary screen, biochemical, FRET, CFP-Ran, YFP-importin-beta, homogeneous (AID 2216).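 Note: 0% = DMSO wells and 100% = Ran loaded with GDP instead of GTP.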 The conditions noted are these: cell-free CFP-Ran/YFP-importin-beta FRET ratio; active compounds read high; concentration not given here.
For the molecule `Cc1cc(C)cc(OP(C)(=O)Nc2ccc(C)cc2C)c1` (configuration not stated), the inhibition is inactive: -1.89%. The value for `CP(=O)(OC12CC3CC(CC(C3)C1)C2)OC12CC3CC(CC(C3)C1)C2` was inactive: -2.7%.

The values are drawn from PubChem BioAssay AID2216 (Broad Institute, 2009).
